Laboratory results: US20240199626A1, “COMPOUNDS WITH IMPROVED CARDIAC SAFETY FOR THE TREATMENT OF CANCER AND NEURODEGENERATIVE DISORDERS” (priority 2021, published 2024)

System: K-562-T315I cells (K-562 cells expressing BCR-ABL^T315I)
Assay: Cell viability / growth inhibition (AlamarBlue), K-562-T315I
Type: cell-based
Details: Homo sapiens, K562, read-out: Cell Inhibition IC50 K-562-T315I

How did the IC50 turn out when `Cc1nc(Nc2ncc(C(=O)Nc3c(C)cccc3Cl)s2)cc(N2CCN(CCO)CC2)n1` [Dasatinib] was run?
Its IC50 is over 10 µM.
